Laboratory results reported in patent publication US20070026408A1, “Materials and methods for analysis of atp-binding cassette transporter gene expression” (priority 2003, published 2007).

Tests used:
Details in all cases: HepG2, vinblastine sulfate 25 nM, standard 24
abcC5 = experiment: DT1 microarray drug screening, drug-treated HepG2: abcC5; assay type: cell-based, human
Description: (§1) The labelled cDNA target preparation was thawed and the 150 μl added to 850 ul hybridisation buffer (500 mM sodium Phosphate pH 6.0, 1% SDS, 1% BSA, 1 mM EDTA) in a 1.5 ml microtube and heated at 95° C. for 10 min.

abcE1 = experiment: DT1 microarray drug screening, drug-treated HepG2: abcE1; assay type: cell-based, human
Description: as §1

abcA6 = experiment: DT1 microarray drug screening, drug-treated HepG2: abcA6; assay type: cell-based, human
Description: as §1

abcA10 = experiment: DT1 microarray drug screening, drug-treated HepG2: abcA10; assay type: cell-based, human
Description: as §1

abcC6 = experiment: DT1 microarray drug screening, drug-treated HepG2: abcC6; assay type: cell-based, human
Description: as §1

abcC13 = experiment: DT1 microarray drug screening, drug-treated HepG2: abcC13; assay type: cell-based, human
Description: as §1

abcA7 = experiment: DT1 microarray drug screening, drug-treated HepG2: abcA7; assay type: cell-based, human
Description: as §1

abcB11 = experiment: DT1 microarray drug screening, drug-treated HepG2: abcB11; assay type: cell-based, human
Description: as §1

abcG5 = experiment: DT1 microarray drug screening, drug-treated HepG2: abcG5; assay type: cell-based, human
Description: as §1

abcB6 = experiment: DT1 microarray drug screening, drug-treated HepG2: abcB6; assay type: cell-based, human
Description: as §1

abcB10 = experiment: DT1 microarray drug screening, drug-treated HepG2: abcB10
abcD3 = experiment: DT1 microarray drug screening, drug-treated HepG2: abcD3; assay type: cell-based, human
Description: as §1

abcD4 = experiment: DT1 microarray drug screening, drug-treated HepG2: abcD4; assay type: cell-based, human
Description: as §1

abcD2 = experiment: DT1 microarray drug screening, drug-treated HepG2: abcD2; assay type: cell-based, human
Description: as §1

abcF3 = experiment: DT1 microarray drug screening, drug-treated HepG2: abcF3; assay type: cell-based, human
Description: as §1

abcA4 = experiment: DT1 microarray drug screening, drug-treated HepG2: abcA4; assay type: cell-based, human
Description: as §1

abcB9 = experiment: DT1 microarray drug screening, drug-treated HepG2: abcB9; assay type: cell-based, human
Description: as §1

abcB2 = experiment: DT1 microarray drug screening, drug-treated HepG2: abcB2; assay type: cell-based, human
Description: as §1

abcC4 = experiment: DT1 microarray drug screening, drug-treated HepG2: abcC4; assay type: cell-based, human
Description: as §1

abcD1 = experiment: DT1 microarray drug screening, drug-treated HepG2: abcD1; assay type: cell-based, human
Description: as §1

abcB1 = experiment: DT1 microarray drug screening, drug-treated HepG2: abcB1; assay type: cell-based, human
Description: as §1

abcC8 = experiment: DT1 microarray drug screening, drug-treated HepG2: abcC8; assay type: cell-based, human
Description: as §1

abcA12 = experiment: DT1 microarray drug screening, drug-treated HepG2: abcA12; assay type: cell-based, human
Description: as §1

abcA3 = experiment: DT1 microarray drug screening, drug-treated HepG2: abcA3; assay type: cell-based, human
Description: as §1

CC[C@]1(O)C[C@@H]2CN(CCc3c([nH]c4ccccc34)[C@@](C(=O)OC)(c3cc4c(cc3OC)N(C)[C@H]3[C@@](O)(C(=O)OC)[C@H](OC(C)=O)[C@]5(CC)C=CCN6CC[C@]43[C@@H]65)C2)C1 [vin, vinblastine sulfate]
relative level of abcC5 gene expression (abcC5; 2 h): 10.95 | relative level of abcC5 gene expression (abcC5; 4 h): 12.64 | relative level of abcC5 gene expression (abcC5; 8 h): 17.32 | relative level of abcE1 gene expression (abcE1; 2 h): 6.428 | relative level of abcE1 gene expression (abcE1; 4 h): 6.815 | relative level of abcE1 gene expression (abcE1; 8 h): 7.531 | relative level of abcA6 gene expression (abcA6; 2 h): 9.9 | relative level of abcA6 gene expression (abcA6; 4 h): 7.85 | relative level of abcA6 gene expression (abcA6; 8 h): 14.54 | relative level of abcA10 gene expression (abcA10; 2 h): 10.28 | relative level of abcA10 gene expression (abcA10; 4 h): 8.659 | relative level of abcA10 gene expression (abcA10; 8 h): 10.5 | relative level of abcC6 gene expression (abcC6; 2 h): 8.103 | relative level of abcC6 gene expression (abcC6; 4 h): 8.424 | relative level of abcC6 gene expression (abcC6; 8 h): 9.917 | relative level of abcC13 gene expression (abcC13; 2 h): 9.551 | relative level of abcC13 gene expression (abcC13; 4 h): 8.964 | relative level of abcC13 gene expression (abcC13; 8 h): 7.491 | relative level of abcA7 gene expression (abcA7; 2 h): 2.265 | relative level of abcA7 gene expression (abcA7; 4 h): 1.808 | relative level of abcA7 gene expression (abcA7; 8 h): 3.135 | relative level of abcB11 gene expression (abcB11; 2 h): 7.106 | relative level of abcB11 gene expression (abcB11; 4 h): 7.458 | relative level of abcG5 gene expression (abcG5; 2 h): 6.024 | relative level of abcG5 gene expression (abcG5; 4 h): 6.084 | relative level of abcG5 gene expression (abcG5; 8 h): 4.099 | relative level of abcB6 gene expression (abcB6; 2 h): 8.655 | relative level of abcB6 gene expression (abcB6; 4 h): 8.468 | relative level of abcB6 gene expression (abcB6; 8 h): 7.559 | relative level of abcB10 gene expression (abcB10; 2 h): 4.259 | relative level of abcB10 gene expression (abcB10; 4 h): 3.99 | relative level of abcB10 gene expression (abcB10; 8 h): 5.498 | relative level of abcD3 gene expression (abcD3; 2 h): 5.918 | relative level of abcD3 gene expression (abcD3; 4 h): 5.802 | relative level of abcD3 gene expression (abcD3; 8 h): 5.647 | relative level of abcD4 gene expression (abcD4; 2 h): 8.052 | relative level of abcD4 gene expression (abcD4; 4 h): 8.687 | relative level of abcD4 gene expression (abcD4; 8 h): 10.28 | relative level of abcD2 gene expression (abcD2; 2 h): 6.669 | relative level of abcD2 gene expression (abcD2; 4 h): 6.512 | relative level of abcD2 gene expression (abcD2; 8 h): 5.888 | relative level of abcF3 gene expression (abcF3; 2 h): 8.976 | relative level of abcF3 gene expression (abcF3; 4 h): 7.82 | relative level of abcF3 gene expression (abcF3; 8 h): 8.133 | relative level of abcA4 gene expression (abcA4; 2 h): 11.01 | relative level of abcA4 gene expression (abcA4; 4 h): 9.361 | relative level of abcA4 gene expression (abcA4; 8 h): 15.91 | relative level of abcB9 gene expression (abcB9; 2 h): 12.62 | relative level of abcB9 gene expression (abcB9; 4 h): 12.28 | relative level of abcB9 gene expression (abcB9; 8 h): 12.23 | relative level of abcB2 gene expression (abcB2; 2 h): 8.667 | relative level of abcB2 gene expression (abcB2; 4 h): 8.938 | relative level of abcB2 gene expression (abcB2; 8 h): 8.491 | relative level of abcC4 gene expression (abcC4; 2 h): 5.277 | relative level of abcC4 gene expression (abcC4; 4 h): 5.743 | relative level of abcC4 gene expression (abcC4; 8 h): 6.273 | relative level of abcD1 gene expression (abcD1; 2 h): 10.02 | relative level of abcD1 gene expression (abcD1; 4 h): 9.668 | relative level of abcD1 gene expression (abcD1; 8 h): 8.254 | relative level of abcB1 gene expression (abcB1; 2 h): 12.12 | relative level of abcB1 gene expression (abcB1; 4 h): 9.658 | relative level of abcB1 gene expression (abcB1; 8 h): 11.52 | relative level of abcC8 gene expression (abcC8; 2 h): 0.3533 | relative level of abcC8 gene expression (abcC8; 4 h): 0.4535 | relative level of abcC8 gene expression (abcC8; 8 h): 0.8805 | relative level of abcA12 gene expression (abcA12; 2 h): 8.474 | relative level of abcA12 gene expression (abcA12; 4 h): 6.774 | relative level of abcA12 gene expression (abcA12; 8 h): 8.089 | relative level of abcA3 gene expression (abcA3; 2 h): 10.83 | relative level of abcA3 gene expression (abcA3; 4 h): 9.241

Structures can show the parent of a compound that is named as a salt.
